These are literature values, as cited in patent US12128121B2, “Compositions comprising organo-silanol compounds, and applications” (EXSYMOL, priority 2020, dated 2024).

Where two headings read alike, the source gives them in different places.

Regarding orthosilicic acid, the concentration in water is recorded as less than 56 mg Sill (as silicon, orthosilicic acid) and less than 2 mM (limit before self-condensation).
